Source: patent US10533201B2, “Enzymatic transphosphorylation of sugar substrates” (priority 2014, dated 2020)

The chains behind the UniProt entries cited, without tags or fusion partners. A line that says so, or that is headed by a name, gives the form on record, which may keep a tag or linker.
UniProt P19926, other isoform, or with tags, fused parts or gaps Y105D/Q163K/D396N: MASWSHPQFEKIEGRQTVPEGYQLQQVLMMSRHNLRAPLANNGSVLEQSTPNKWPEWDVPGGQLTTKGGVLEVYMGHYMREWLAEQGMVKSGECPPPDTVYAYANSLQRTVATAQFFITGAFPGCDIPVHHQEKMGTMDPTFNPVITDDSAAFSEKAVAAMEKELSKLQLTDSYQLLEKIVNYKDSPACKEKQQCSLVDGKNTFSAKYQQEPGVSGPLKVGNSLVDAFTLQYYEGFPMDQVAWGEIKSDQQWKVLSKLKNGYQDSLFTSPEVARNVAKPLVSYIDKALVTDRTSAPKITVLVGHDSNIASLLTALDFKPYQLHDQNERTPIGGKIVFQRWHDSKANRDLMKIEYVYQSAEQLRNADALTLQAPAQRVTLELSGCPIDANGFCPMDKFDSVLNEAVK

Target: T1, αGlc 1-P phosphatase (Escherichia coli, UniProt P19926, D396N/Q163K/Y105D)
T1 construct: Strep-tag (N); made in house; host or cells: E. coli Origami B (DE3), cytoplasmic, pMS470_dsbC vector (DsbC co-expressed)
Assay type: biochemical
Experimental: Fru 6-P was measured using an assay with mannitol 1-phosphate dehydrogenase (52). […] (1)
Fru (100, 200, 400 or 600 mM) or Glc (200 mM) was used as the acceptor substrate. […] Sampling was done to allow for determination of initial rates, but the full reaction time course was also recorded. Relevant kcat_app values for substrate consumption, phosphate release, and phosphoryl transfer were obtained from the corresponding V values using equation 2. Internal consistency of the data was always checked by mass balance. pH dependence of phosphoryl transfer. […] A 50 mM Mes buffer was used, except at pH ≤6.0 where 50 mM Mes and 20 mM sodium acetate were used, and at pH 8.0 where 50 mM Mes and 50 mM Tes were used. Buffer pH values were adjusted at 37° C. and controlled before and after recording each enzyme-catalyzed reaction. Sampling and analyses were as described above.
For data analysis by non-linear least-squares regression, SigmaPlot 2004 version 9.0 was used. Equation 3 describes a pH dependence where activity (expressed as logarithmic kcat_app) is constant at low pH and decreases above pKB. […]
Selected samples were analyzed on a Dionex BioLC system (Dionex Corporation, Sunnyvale, USA) equipped with a CarboPac PA10 column (4×250 mm) and an Amino Trap guard column (4×50 mm) thermostated at 30° C. […]

SMILES: O=P(O)(O)O[C@H]1O[C@H](CO)[C@@H](O)[C@H](O)[C@H]1O [αGlc 1-P, alpha-glucose-1-phosphate]
- calculated maximum kcat_app (α-Glc 1-P) at saturating concentrations of the phosphoryl acceptor: 254 s⁻¹
